ChEMBL document CHEMBL1126095, “Incorporation of a novel conformationally restricted tyrosine analog into a cyclic, delta opioid receptor selective tetrapeptide (JOM-13) enhances delta receptor binding affinity and selectivity” (J Med Chem, 1992)

Sequences of proteins named here, by UniProt entry; tags and fusion partners are left off. A change or cut given only in a name is not applied to a line headed by its entry.
UniProt P41144: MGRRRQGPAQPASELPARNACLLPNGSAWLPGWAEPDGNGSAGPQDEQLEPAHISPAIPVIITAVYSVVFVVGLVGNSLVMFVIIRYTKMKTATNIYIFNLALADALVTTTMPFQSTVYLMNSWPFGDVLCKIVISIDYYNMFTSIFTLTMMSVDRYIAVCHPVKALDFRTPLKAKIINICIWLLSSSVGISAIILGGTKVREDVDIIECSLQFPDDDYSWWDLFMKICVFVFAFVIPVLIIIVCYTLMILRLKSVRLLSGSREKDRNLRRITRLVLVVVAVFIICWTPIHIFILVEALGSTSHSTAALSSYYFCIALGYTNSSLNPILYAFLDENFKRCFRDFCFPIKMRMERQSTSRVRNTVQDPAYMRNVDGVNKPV

Biological target: Kappa-type opioid receptor (Cavia porcellus, UniProt P41144)
Experiment: Binding affinity against opioid receptor kappa from guinea pig brain homogenates, using [3H]U-69593 as radioligand.
Format: tissue-based

CC1(C)SSC[C@H](NC(=O)[C@@H](N)Cc2ccc(O)cc2)C(=O)N[C@@H](Cc2ccccc2)C(=O)N[C@@H]1C(=O)O
Ki: > 10 µM
